PubChem BioAssay AID740 (SRMLSC, 2007)
The entries are a selection whose mix differs from that of the whole data set. Active and inactive are the calls of the source. Rule as the data show it: active = inhibition above about 25%; inactive = the rest.

Test: unspecified inhibition readout at 50 µM (AID 740)
Conditions: unspecified screen; active compounds read high
In the case of `N#CC1(Nc2ccccc2)CCN(CCc2ccccc2)CC1`, the inhibition is reported as inactive: 0.26%. In the case of `O=C(NCC1(N2CCOCC2)CCCCC1)c1cc2ccccc2o1`, the inhibition is reported as “inactive”. With `O=C(OC1CN2CCC1CC2)C1c2ccccc2Oc2ccccc21` (stereo not drawn) the inhibition was “inactive”. With `COc1ccc(NC2CCN(CCc3ccccc3)CC2)c(OC)c1` the inhibition was “inactive”. With `CCC(CO)(C(=O)OC1CN2CCC1CC2)c1ccccc1` (stereo not drawn) the inhibition was inactive: 0.34%. For `CCOc1ncccc1C(=O)NCC1(N2CCOCC2)CCCCC1`, the inhibition was inactive: 0.6%. For `N/C(=N\O)c1c(N)no[n+]1[O-]`, the inhibition was “inactive”. For `c1ccc(CN2CCC(Nc3ccccc3)CC2)cc1`, the inhibition was “inactive”.
